Experimental findings from PMC7723054 are described below.

The list shows a part of the results.

What all share (test): FOREST: bead pull-down of RNA structure library v1, barcode microarray; U1A/LIN28A: 20 mM HEPES pH 7.5, 80 mM KCl, 20 mM NaCl, 10% glycerol, 2 mM DTT, 0.1 ug/uL BSA, 4 C; BG4/CIRBP/DHX36: 10 mM Tris-HCl pH 7.5, 100 mM KCl (or LiCl),; high values mean tight binding
One assay concerns the target T1, LIN28A (human?, UniProt Q9H9Z2 1-209).
T1 sequence: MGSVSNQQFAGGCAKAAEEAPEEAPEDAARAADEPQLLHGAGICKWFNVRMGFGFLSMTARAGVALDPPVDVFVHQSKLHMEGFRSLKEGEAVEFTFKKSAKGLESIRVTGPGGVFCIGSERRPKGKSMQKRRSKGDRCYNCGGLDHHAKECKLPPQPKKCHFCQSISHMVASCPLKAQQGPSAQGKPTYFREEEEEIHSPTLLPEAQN

For the next assay, the target named is T2, CIRBP (Homo sapiens, UniProt Q14011 1-172).
T2 sequence: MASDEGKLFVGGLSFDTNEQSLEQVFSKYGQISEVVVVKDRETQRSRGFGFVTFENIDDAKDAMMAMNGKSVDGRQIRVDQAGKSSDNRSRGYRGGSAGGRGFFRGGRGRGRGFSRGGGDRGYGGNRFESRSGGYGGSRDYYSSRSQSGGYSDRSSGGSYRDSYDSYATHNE

Another assay addresses T3, DHX36 (Homo sapiens, UniProt Q9H2U1 1-1008).
T3 sequence: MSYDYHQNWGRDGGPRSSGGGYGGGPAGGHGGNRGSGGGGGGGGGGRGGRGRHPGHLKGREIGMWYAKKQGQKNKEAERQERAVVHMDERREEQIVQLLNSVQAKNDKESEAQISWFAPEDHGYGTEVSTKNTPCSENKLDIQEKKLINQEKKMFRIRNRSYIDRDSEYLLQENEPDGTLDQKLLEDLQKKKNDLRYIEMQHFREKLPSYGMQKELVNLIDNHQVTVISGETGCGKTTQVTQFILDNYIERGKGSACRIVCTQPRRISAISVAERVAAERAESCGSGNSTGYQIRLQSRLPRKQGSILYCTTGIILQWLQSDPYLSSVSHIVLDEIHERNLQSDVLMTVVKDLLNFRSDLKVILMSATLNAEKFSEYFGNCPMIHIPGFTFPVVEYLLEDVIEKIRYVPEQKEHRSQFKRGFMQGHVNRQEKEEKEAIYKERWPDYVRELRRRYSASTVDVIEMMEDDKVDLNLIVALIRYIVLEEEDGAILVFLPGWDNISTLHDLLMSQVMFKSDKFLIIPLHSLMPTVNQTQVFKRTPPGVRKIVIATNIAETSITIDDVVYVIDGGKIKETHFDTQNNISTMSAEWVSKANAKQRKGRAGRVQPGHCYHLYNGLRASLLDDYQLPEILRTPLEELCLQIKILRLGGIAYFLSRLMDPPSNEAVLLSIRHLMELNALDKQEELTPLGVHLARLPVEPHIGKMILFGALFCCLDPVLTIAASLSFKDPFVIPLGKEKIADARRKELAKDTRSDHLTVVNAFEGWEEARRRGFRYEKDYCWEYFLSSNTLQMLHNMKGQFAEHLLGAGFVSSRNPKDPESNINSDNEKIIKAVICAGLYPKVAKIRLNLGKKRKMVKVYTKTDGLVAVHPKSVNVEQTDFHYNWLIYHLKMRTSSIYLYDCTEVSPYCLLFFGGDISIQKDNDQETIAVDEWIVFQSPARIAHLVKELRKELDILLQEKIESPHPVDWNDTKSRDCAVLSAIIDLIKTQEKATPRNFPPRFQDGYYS

B1: PARIS_ID6 (structured_RNA)
RNA: GGGAAAUGAGGGCAAGGGCCUACAACAAGGUGUACGAAGUUUCAGCGUGACACUGUUUUGUGAGAUGGGUUGAAAGCACGUGCUGCCAAAAUAGAAUAAUGUUGGUCCUCUCCUCAUGUGCCGUGGAACGCUGAAGCUUCGUGCAC
As for B1, the figures for the binding signal with LIN28A, with CIRBP and in the assay with DHX36 were 0.249 z-score, 0.169 z-score and 0.507 z-score, respectively.

B2: hsa-mir-3940 (structured_RNA)
RNA: GGGACGCUGGUCCCUCUUAACCUAGAGCGGUGUACGAAGUUUCAGCGCUCUGGGGAUUUGGUCUCACAGCGCUGAAGCUUCGUGCAC
Turning to B2, the binding signal is 0.247 z-score with LIN28A, -0.277 z-score with CIRBP and -0.194 z-score with DHX36.

B3: hsa-mir-526b_518a-1 (structured_RNA)
RNA: GGGAAUUGACUGCGAGUUUUAACAGGCCGGUGUACGAAGUUUCAGCUUUCUGUUGUCUGAAAGAAGAGAAAGCUGAAGCUUCGUGCAC
Regarding B3, the binding signal in the assay with LIN28A was 0.239 z-score; with CIRBP, 0.709 z-score; with DHX36, -0.448 z-score.

B4: hsa-mir-466 (structured_RNA)
RNA: GGGACACGCUGGGGAUGACCAUUUAUUAGGUGUACGAAGUUUCAGCAUAUGUGUGUAUAUAUGUACACAUACGCUGAAGCUUCGUGCAC
In the case of B4, the binding signal with LIN28A is 0.247 z-score; with CIRBP, -0.458 z-score; in the assay with DHX36 it was -0.305 z-score.

B5: hsa-mir-181a-1 (structured_RNA)
RNA: GGGAGCGACUGGCCGUUAUACAGUAAACGGUGUACGAAGUUUCAGCGAGUUUGGAAUUAAAAUCAAAACCGCUGAAGCUUCGUGCAC
B5: the binding signal with LIN28A is 0.239 z-score; in the assay with CIRBP, -0.634 z-score; with DHX36, -0.858 z-score.

B6: hsa-mir-873 (structured_RNA)
RNA: GGGAGCUGCCCCGCCUGGAGAUAAAAUCGGUGUACGAAGUUUCAGCCUCCUAUUGAAAAUGAACAGGAGGCUGAAGCUUCGUGCAC
Turning to B6, the binding signal is 0.239 z-score with LIN28A, 0.454 z-score in the assay with CIRBP and 0.233 z-score with DHX36.

B7: hsa-mir-149 (structured_RNA)
RNA: GGGAAAGUACAGCGGCGCUUAAACUGUCGGUGUACGAAGUUUCAGCCACUCCCGUGCUUGUCCGAGGAGGGAGGGCUGAAGCUUCGUGCAC
With B7, the binding signal with LIN28A is 0.244 z-score; with CIRBP, -0.658 z-score; in the assay with DHX36, -0.475 z-score.

B8: hsa-mir-4678 (structured_RNA)
RNA: GGGAAACGAAACGUCGUGAAGAUUAAUGGGUGUACGAAGUUUCAGCAUGAUUUUUGGGGUCAGCUGAAGCUUCGUGCAC
For B8, the binding signal in the assay with LIN28A was 0.244 z-score; with CIRBP, 1.1 z-score; with DHX36, -0.106 z-score.

B9: hsa-mir-4327 (structured_RNA)
RNA: GGGAAAAUACGAGUAAGCUUUGCCGCAUGGUGUACGAAGUUUCAGCCUGGGAAGAGACCAUGAACAGGUUAGUCCAGGCUGAAGCUUCGUGCAC
With B9, the values for the binding signal in the assay with LIN28A, with CIRBP and with DHX36 were 0.242 z-score, 0.0538 z-score and -0.0255 z-score, respectively.

B10: NEAT1_ParasoR_ID11 (structured_RNA)
RNA: GGGAAGCAGGAACACUCCACGUAACUACGGUGUACGAAGUUUCAGCAAAUGGUUCUUAACAUUUGCUGAAGCUUCGUGCAC
For B10, the binding signal was 0.244 z-score in the assay with LIN28A, -0.284 z-score in the assay with CIRBP and 0.0905 z-score with DHX36.

B11: hsa-mir-5586 (structured_RNA)
RNA: GGGAAGACGAUAAACCAUCUACGUCCCAGGUGUACGAAGUUUCAGCUAUAUGCUUUUUAAAUGGGGCACAGAGCUGAAGCUUCGUGCAC
As to B11, the binding signal with LIN28A is 0.247 z-score; with CIRBP it was 0.434 z-score; with DHX36 it was -0.215 z-score.

B12: hsa-mir-1343 (structured_RNA)
RNA: GGGAGAUGACGAACUAUUCCAGCCAGUUGGUGUACGAAGUUUCAGCGGUGGGCCUCUGCUCUGGCCCCUCCGCUGAAGCUUCGUGCAC
Turning to B12, the binding signal is 0.245 z-score with LIN28A, -0.19 z-score in the assay with CIRBP and 0.0689 z-score with DHX36.

B13: hsa-mir-4454 (structured_RNA)
RNA: GGGAAGCAGGCUAUAGGCUAAUGACAACGGUGUACGAAGUUUCAGCCCAAAUUUCAUGCGGCUGAAGCUUCGUGCAC
For the molecule B13, the results for the binding signal with LIN28A, in the assay with CIRBP and with DHX36 were 0.25 z-score, 0.0161 z-score and -0.508 z-score, respectively.
